Assay results taken from ChEMBL document CHEMBL4406897 (Bioorg Med Chem, 2019).

test system: Plasmodium falciparum; assay: Ratio of compound Ki to pyrimethamine Ki for competitive inhibition of wild type Plasmodium falciparum dihydrofolate reductase expressed in Escherichia coli BL21(DE3)pLysS using dihydrofolate as substrate

| SMILES | Ratio Ki |
| --- | --- |
| Cl.Nc1nc(N)c(-c2cccc(Cl)c2)c(CCCOc2ccccc2)n1 | 0.4 |
| Cl.Nc1nc(N)c(-c2ccccc2)c(CCCCCOc2ccccc2)n1 | 0.5 |
| Cl.Nc1nc(N)c(-c2ccccc2)c(CCCCOc2cccc(OCC(=O)O)c2)n1 | 0.83 |
